# Results from ChEMBL document CHEMBL6078683, “Discovery of MT-7117 (Dersimelagon Phosphoric Acid): A Novel, Potent, Selective, and Nonpeptidic Orally Available Melanocortin 1 Receptor Agonist” (J Med Chem, 2024).
# Calls of active or inactive are those of the source. No cut-off for these calls is given here.
# Key:
# Mus musculus [1] = species: Mus musculus; settings: dose 0.3-3 mg/kg, route po, time 4.0 weeks
# Mus musculus [2] = species: Mus musculus; settings: dose 0.3-3 mg/kg, route po, time 4.0 weeks; remark: listed apart in the source
structure (smiles),measurement,setting,value
COC[C@H]1CN(C(=O)[C@]2(F)CN(C3CCCC3)C[C@H]2c2ccc(OC)cc2)C[C@@H]1c1ccc(C(F)(F)F)cc1N1CCC(C(=O)O)CC1,inhibition,Mus musculus [1],Active
same,inhibition,Mus musculus [2],Active
